The values that follow come from PMC4330371, “Interaction between the RNA-dependent ATPase and poly(A) polymerase subunits of the TRAMP complex is mediated by short peptides and important for snoRNA processing” (Nucleic Acids Research, 2015).

Chains of the proteins cited; added tags and fusions are not shown. Lines headed by an entry give the natural chain unless they say otherwise; changes in a name come on top.
UniProt P48561: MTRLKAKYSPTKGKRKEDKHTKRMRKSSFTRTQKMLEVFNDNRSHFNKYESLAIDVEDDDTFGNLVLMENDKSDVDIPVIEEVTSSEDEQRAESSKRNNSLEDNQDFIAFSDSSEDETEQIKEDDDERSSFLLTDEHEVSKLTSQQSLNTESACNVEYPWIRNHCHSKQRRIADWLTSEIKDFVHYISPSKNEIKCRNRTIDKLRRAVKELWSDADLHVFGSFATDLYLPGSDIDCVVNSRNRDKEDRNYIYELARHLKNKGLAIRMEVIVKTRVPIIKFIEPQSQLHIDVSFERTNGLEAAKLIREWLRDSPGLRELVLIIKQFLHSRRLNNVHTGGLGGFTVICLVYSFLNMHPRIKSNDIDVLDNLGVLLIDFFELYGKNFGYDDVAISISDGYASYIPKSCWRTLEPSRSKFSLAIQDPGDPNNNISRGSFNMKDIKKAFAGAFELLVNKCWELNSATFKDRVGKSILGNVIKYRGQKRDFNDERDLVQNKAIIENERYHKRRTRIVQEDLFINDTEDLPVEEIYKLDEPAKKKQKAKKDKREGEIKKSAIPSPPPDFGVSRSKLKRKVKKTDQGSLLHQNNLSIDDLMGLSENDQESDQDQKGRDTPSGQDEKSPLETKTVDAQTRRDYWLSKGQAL

In assay [1] the target is T1, Mtr4^WT (recombinant, pSJJ004) (S. cerevisiae, UniProt P47047 1-1073).
T1 construct: Mtr4, S. cerevisiae, full length; the His tag is TEV protease-cleavable; also called full-length recombinant Mtr4; recombinant Mtr4
T1 sequence (looked up): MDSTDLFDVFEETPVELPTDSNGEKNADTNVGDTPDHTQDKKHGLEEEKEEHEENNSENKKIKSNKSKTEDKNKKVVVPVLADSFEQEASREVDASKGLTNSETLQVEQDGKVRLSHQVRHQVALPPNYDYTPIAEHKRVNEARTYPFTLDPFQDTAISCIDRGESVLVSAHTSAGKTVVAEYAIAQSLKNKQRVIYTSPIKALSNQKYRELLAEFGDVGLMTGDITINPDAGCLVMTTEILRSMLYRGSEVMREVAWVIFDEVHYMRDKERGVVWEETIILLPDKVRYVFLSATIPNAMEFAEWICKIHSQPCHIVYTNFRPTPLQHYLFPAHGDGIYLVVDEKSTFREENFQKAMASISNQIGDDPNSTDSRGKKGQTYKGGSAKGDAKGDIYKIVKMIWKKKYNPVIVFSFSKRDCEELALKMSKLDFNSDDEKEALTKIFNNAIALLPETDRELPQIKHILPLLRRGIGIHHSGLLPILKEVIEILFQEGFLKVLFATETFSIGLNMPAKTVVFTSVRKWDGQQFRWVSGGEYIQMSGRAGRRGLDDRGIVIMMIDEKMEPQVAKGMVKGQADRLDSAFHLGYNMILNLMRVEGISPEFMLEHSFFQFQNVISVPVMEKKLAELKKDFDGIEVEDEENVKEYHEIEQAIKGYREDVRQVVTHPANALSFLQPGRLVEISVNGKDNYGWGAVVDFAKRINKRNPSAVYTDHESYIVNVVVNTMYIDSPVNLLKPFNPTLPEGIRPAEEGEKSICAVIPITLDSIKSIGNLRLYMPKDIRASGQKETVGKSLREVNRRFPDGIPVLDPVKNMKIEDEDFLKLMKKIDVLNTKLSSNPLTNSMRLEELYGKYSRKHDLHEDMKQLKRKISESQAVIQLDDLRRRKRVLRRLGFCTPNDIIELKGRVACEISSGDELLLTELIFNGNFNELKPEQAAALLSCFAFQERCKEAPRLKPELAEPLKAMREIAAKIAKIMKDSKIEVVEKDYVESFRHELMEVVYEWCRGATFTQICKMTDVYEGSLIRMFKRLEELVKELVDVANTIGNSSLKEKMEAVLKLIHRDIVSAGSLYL
Nature of the assay: fluorescence polarisation; fluorescence anisotropy; fluorescein-Air2 1-29 peptide held at 80 nM, titrated with Mtr4; 50 mM HEPES pH 7.5, 100 mM NaCl, 0.1 mg/ml bovine serum albumin, 12% glycerol; 25°C; apparent Kd. The conditions noted are these: both partners purified. In general terms: Polarisation of emitted light reports the rotation of a fluorescent probe.

Assay [2] has as its system Mtr4-ΔN80. The conditions noted are these: ITC, dimeric complex containing either one of the peptide motifs; cited from earlier work. From the text:
While we were preparing this manuscript, Falk et al. independently identified similar Trf4 and Air2 regions that can directly interact with Mtr4 ([38]). […] The agreement is remarkable considering the difference in methods (isothermal titration calorimetry/ITC versus fluorescence anisotropy), Mtr4 construct (Mtr4-ΔN80 and Mtr4-ΔN74) and Trf/Air binding partner (dimeric protein complexes versus isolated peptid ...
Background: Isothermal titration calorimetry measures the heat released or taken up as one component is titrated into another.

The target in assay [3] is T1, Mtr4^WT (recombinant, pSJJ004). Nature of the assay: fluorescence polarisation; fluorescence anisotropy; fluorescein-Trf5 peptide held at 50 nM, increasing Mtr4; 50 mM HEPES pH 7.5, 140 mM NaCl, 12% glycerol; 30 min at 30°C, read at 30°C. The conditions noted are these: both partners purified.

B1: Air2 peptide comprising residues 1–29 with an N-terminal fluorescein label (peptide, UniProt Q12476 1-29, looked up)
peptide: MEKNTAPFVVDTAPTTPPDKLVAPSIEEV
modifications: fluorescein on the N-terminus
notes: also called Air2^1–29 peptide; Air2 residues 1–29; source: peptide obtained from Dr. Joshua Price at Brigham Young University
Turning to B1, the Kd in assay [1] is approximately 6.9 µM.

B2: complex of recombinant Trf4 and Air2: complex of recombinant Trf4 and Air2 that contained either one of the peptide motifs (Falk et al.) (protein, UniProt P53632 1-584; Q12476 1-344, looked up)
Poly(A) RNA polymerase …: MGAKSVTASSSKKIKNRHNGKVKKSKKIKKVRKPQKSISLNDENEVEILPSRNEQETNKLPKDHVTADGILVLEHKSDDDEGFDVYDGHFDNPTDIPSTTEESKTPSLAVHGDEKDLANNDDFISLSASSEDEQAEQEEEREKQELEIKKEKQKEILNTDYPWILNHDHSKQKEISDWLTFEIKDFVAYISPSREEIEIRNQTISTIREAVKQLWPDADLHVFGSYSTDLYLPGSDIDCVVTSELGGKESRNNLYSLASHLKKKNLATEVEVVAKARVPIIKFVEPHSGIHIDVSFERTNGIEAAKLIREWLDDTPGLRELVLIVKQFLHARRLNNVHTGGLGGFSIICLVFSFLHMHPRIITNEIDPKDNLGVLLIEFFELYGKNFGYDDVALGSSDGYPVYFPKSTWSAIQPIKNPFSLAIQDPGDESNNISRGSFNIRDIKKAFAGAFDLLTNRCFELHSATFKDRLGKSILGNVIKYRGKARDFKDERGLVLNKAIIENENYHKKRSRIIHDEDFAEDTVTSTATATTTDDDYEITNPPAKKAKIEEKPESEPAKRNSGETYITVSSEDDDEDGYNPYTL
Protein AIR2: MEKNTAPFVVDTAPTTPPDKLVAPSIEEVNSNPNELRALRGQGRYFGVSDDDKDAIKEAAPKCNNCSQRGHLKKDCPHIICSYCGATDDHYSRHCPKAIQCSKCDEVGHYRSQCPHKWKKVQCTLCKSKKHSKERCPSIWRAYILVDDNEKAKPKVLPFHTIYCYNCGGKGHFGDDCKEKRSSRVPNEDGSAFTGSNLSVELKQEYYRHMNRNSDENEDYQFSESIYDEDPLPRPSHKRHSQNDHSHSGRNKRRASNFHPPPYQKSNVIQPTIRGETLSLNNNISKNSRYQNTKVNVSSISENMYGSRYNPSTYVDNNSISNSSNYRNYNSYQPYRSGTLGKRR
With B2, the “affinity for Mtr4” value in assay [2] is “affinities very similar to those we determined”.

B3: Trf5 peptide comprising residues 98–124 with an N-terminal fluorescein label (peptide, UniProt P48561 98-124, looked up)
peptide: NNSLEDNQDFIAFSDSSEDETEQIKED
modifications: fluorescein on the N-terminus
notes: Trf5, S. cerevisiae, residues 98-124; the methods give 98-124; also called fluorescein-labeled Trf5 peptide; fluorescently labeled Trf5 peptide; source: synthetic peptide, purchased through the Keck lab at Yale University
As for B3, the Kd in assay [3] came out at 10.7 µM.
